Test results taken from PubChem BioAssay AID652105 (National Center for Advancing Translational Sciences (NCATS), 2013).
The list shows a part of the results, in another mix than the full data. Activity calls are given as the source filed them. The calls were made as follows: active = max response of -50% or lower; inconclusive = between -30% and -50%; inactive = -30% or higher.
% is scaled to controls: 0 for no effect and ±100 for the full control effect.
Also: value at the top dose of about 77 µM.

Protein sequences, listed by entry. Tags and fused reporters are not part of them. Lines headed by an entry give the natural chain unless they say otherwise; changes in a name come on top.
UniProt P48426: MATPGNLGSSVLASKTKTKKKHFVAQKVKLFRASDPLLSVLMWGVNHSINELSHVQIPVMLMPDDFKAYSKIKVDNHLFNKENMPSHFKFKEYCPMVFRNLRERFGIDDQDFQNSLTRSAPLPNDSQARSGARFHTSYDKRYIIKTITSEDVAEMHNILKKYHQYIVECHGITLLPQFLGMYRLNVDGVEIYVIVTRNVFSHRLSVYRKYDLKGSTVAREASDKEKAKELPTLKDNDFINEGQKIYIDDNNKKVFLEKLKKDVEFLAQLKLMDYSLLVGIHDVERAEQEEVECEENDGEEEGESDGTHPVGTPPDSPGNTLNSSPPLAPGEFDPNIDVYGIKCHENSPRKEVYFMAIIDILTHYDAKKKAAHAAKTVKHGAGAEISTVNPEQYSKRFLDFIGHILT

These molecules were tested against Phosphatidylinositol 5-phosphate 4-kinase type-2 alpha (Homo sapiens) (UniProt P48426) (assay: qHTS for Inhibitors of phosphatidylinositol 5-phosphate 4-kinase (PI5P4K)). Settings: PI5P4Kalpha enzyme, ADP-Glo luminescence, 60 min; stronger effect = lower value.
In short: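 ADP-Glo luminescence end-point read after a 60 min room-temperature kinase reaction of PI5P4Kalpha plus substrate, initiated with ATP at 5 microM final. Buffer: 0.038 M HEPES pH 7.4, EGTA, 0.1% CHAPS, 5% DMSO.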
With `C[N+]1=C2C=CC=CC=C2SC12C([N+](=O)[O-])=CC([N+](=O)[O-])=C[C-]2[N+](=O)[O-]` (centres undefined) the max response was active: -73.7%. For `Cc1ccc(NP(=O)(Oc2ccccc2)Oc2ccccc2)nc1`, the max response was inactive: 6.93%. For `CCc1nc2c(n1)c1c(non1O)c1c2no[n+]1[O-]`, the max response was inactive: 0.217%. `CC(=O)N1C2C3N(C(C)=O)C1C1N(C(C)=O)C(C(N1C(C)=O)N3C(C)=O)N2C(C)=O` was tested, and the max response was inactive: 1.65%. For `O=[N+]([O-])c1cccc2n[nH]nc12`, the max response was inactive: -7.62%. For `COc1ccc(C2=NCC(CBr)S2)cc1` (centres undefined), the max response was inactive: 0.19%. With `O=C(O)CNc1ccc([As](=O)(O)O)cc1` the max response was inactive: 0.548%. With `O=[N+]([O-])c1cccc(NC2=NCC(CBr)S2)c1` (centres undefined) the max response was inactive: -0.961%. `COC(=O)C1(C)COP(=O)(Nc2ccccc2)OC1` (centres undefined) was tested, and the max response was inactive: 17.6%. In the case of `O=[N+]([O-])c1ncn(CCn2ncnc2[N+](=O)[O-])n1`, the max response is reported as inactive: 6.88%. In the case of `CC(C)(C)C(=O)NC(Sc1ccncn1)C(Cl)(Cl)Cl` (centres undefined), the max response is reported as inactive: -19.8%. For `O=C(Nc1cc([As](=O)(O)O)ccc1O)c1ccccc1`, the max response was inactive: -3.88%. For `O=P1(N(CCCl)CCCl)OCCCS1` (centres undefined), the max response was inactive: 0.145%. For `Nc1cccc2ccc([As](=O)(O)O)cc12`, the max response was inactive: 1.59%. With `CCN(N=Nc1nonc1N)c1nonc1N` the max response was inactive: 2.22%. In the case of `CCOP(=O)(Nc1ccccc1)OCC`, the max response is reported as inactive: 6.99%. With `Cc1cc(SC(NC(=O)c2ccc(F)cc2)C(Cl)(Cl)Cl)ncn1` (centres undefined) the max response was active: -72.9%. For `CN(C(=O)Cc1ccc(Cl)c(Cl)c1)[C@H]1CCCC[C@@H]1N1CCCC1`, the max response was inactive: 0.189%. `Cc1ccc(NP(=O)(Oc2ccccc2F)Oc2ccccc2F)nc1` was tested, and the max response was inactive: 3.31%. `CN(C)P(=O)(N(C)C)n1c(Nc2ccccc2)nnc1-c1ccccc1` was tested, and the max response was inactive: -1.68%. `O=P(Nc1nc2ccc(Cl)cc2s1)(c1ccccc1)c1ccccc1` was tested, and the max response was inactive: 10.1%. For `O=C(O)c1ccccc1[As](=O)(O)O`, the max response was inactive: 4.79%. With `CC(=O)Nc1ccc([As](=O)(O)O)cc1` the max response was inactive: 2.84%. `CCCC1OP(N)(=O)OCC1CC` (centres undefined) was tested, and the max response was inactive: 0.16%. With `O=[N+]([O-])C1C(O)C(O)C([N+](=O)[O-])C(O)C1O` (centres undefined) the max response was inactive: -8.4%. In the case of `O=C(NC(Sc1ccncn1)C(Cl)(Cl)Cl)c1ccccc1` (centres undefined), the max response is reported as active: -54.1%. `Nc1cc(N)c2nonc2c1[N+](=O)[O-]` was tested, and the max response was inactive: -28.4%. In the case of `Clc1ccc(Cl)c(NC2=NCC(CBr)S2)c1` (centres undefined), the max response is reported as inactive: -1.88%. In the case of `CN1CCCC(OC(=O)C(c2ccccc2)c2ccccc2)C1` (centres undefined), the max response is reported as inactive: 2.2%. In the case of `COc1ccccc1OP(=O)(Nc1ccc(C)cn1)Oc1ccccc1OC`, the max response is reported as inactive: -7.3%. `Cc1ccc(OP(=O)(Nc2nccs2)Oc2ccc(C)cc2)cc1` was tested, and the max response was inactive: 4.22%. In the case of `CN(C(=O)Cc1ccc(Cl)c(Cl)c1)[C@H]1CCCC[C@H]1N1CCCC1`, the max response is reported as inactive: 15.9%. With `Cc1ccc(N/C(=N/P(=O)(N2CCOCC2)N2CCOCC2)N2CCOCC2)cc1` the max response was inactive: 19%. `NC(=O)c1cc([N+](=O)[O-])cc([N+](=O)[O-])c1N` was tested, and the max response was inactive: -3.13%.
